Binding of CDR-mutated scFvs to a peptide of the spike HR2 region

Target peptide (SARS-CoV-2 spike, HR2 region): PDVDLGDISGINAS

Ab-14 is the parent antibody, in scFv form: VH, then a (GGGGS)3 linker, then VL. The light chain is unchanged in all variants.
VH: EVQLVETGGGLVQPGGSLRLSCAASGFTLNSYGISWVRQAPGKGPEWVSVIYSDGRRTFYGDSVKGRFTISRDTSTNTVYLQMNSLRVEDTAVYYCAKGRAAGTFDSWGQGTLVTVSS
VL: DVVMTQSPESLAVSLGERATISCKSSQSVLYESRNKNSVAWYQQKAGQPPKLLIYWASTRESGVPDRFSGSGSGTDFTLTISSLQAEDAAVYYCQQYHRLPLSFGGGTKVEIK

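Designed CDR sequences, proposed from the first random library and measured here. Group labels follow the data file (Ctrl: baseline library sampled from a position-specific scoring matrix, with some repeated check sequences; En: ensemble of fine-tuned language models; GP: Gaussian process model; GPLM: also part of the Gaussian process libraries; HC: hill climbing; Gen: genetic algorithm; Gibbs: Gibbs sampling; a sequence that several methods proposed may carry one label only). The scFvs were displayed on barcoded MATa yeast, the peptide on MATalpha yeast. Pairs that bind mate more often; barcode pairs of the diploids are counted by sequencing. A regression on co-assayed BCL2-family reference pairs converts the normalised counts of each replicate to an apparent Kd. Mating was done six times.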

The parent's heavy chain CDRs are GFTLNSYGIS, VIYSDGRRTFYGDSVK, GRAAGTFDS; each variant's own CDRs replace them letter for letter. Each Kd is an estimate from the mating assay, the geometric mean of the replicates in which the pair was seen; lower is stronger. Where no diploid with the target was found in any replicate, the entry reads "not detected": below detection, most likely a poor binder, though not proof of it. Background: pairings of all heavy chain designs with three empty control strains gave a value in 1% of cases (median 120 nM, 5th percentile 7.0 nM). Values in that range, when seen in few replicates, are hard to tell from nonspecific mating. The authors averaged sequences with at least three values out of six and counted those with two or fewer as poor binders. A sequence measured in both rounds can read differently, since the two assays cover different ranges.

| CDR-H1 | CDR-H2 | CDR-H3 | group | Kd | seen in |
|---|---|---|---|---|---|
| GFTLNSYGIS | VIYSDGVRTFYSDSVK | GTAAGTFDS | GPLM_Gen | 53 nM | 6 of 6 |
| GFDLNEYGIS | VIYADGVRKAYADSVK | GNVAGTFDI | En_Gen | 82 pM | 6 of 6 |
| GFNLNSYGIS | VIYSDGRRTFYKDSVK | GQLAGTFDS | GP_HC | 9.5 nM | 6 of 6 |
| GFQLNDYGIS | VIYSDGRRTFYIDSVK | GRAAGTFDS | GPLM_HC | 3.7 nM | 5 of 6 |
| GYTIRSYGIS | VIYSDGNRTFYGDSVK | GRVAGTFDS | Ctrl | 42 nM | 1 of 6 |
| GFTLNEYGIS | VIYSDGRRTFYGDSVK | GHAAGTFDT | GPLM_Gen | 2.6 nM | 6 of 6 |
| GFKLNSYGIS | VIYSDGRRTFYSDSVK | GRAAGTFDS | Ctrl | 22 nM | 6 of 6 |
| GFDLNSYGIS | VIYSDGRRTFYQDRVK | GRTAGTFDS | GP_Gen | 2.4 nM | 6 of 6 |
| GMDLNEYGIS | VIYADGRRAAYINQVK | GSNSDTVSL | En_Gibbs | 25 nM | 2 of 6 |
| GFQLNSYGIS | VIYSDGRRTFYADNVK | GRTAGTFDS | GPLM_Gibbs | 46 nM | 6 of 6 |
| GFNLNEYGIS | VIYADGRRTFYADSVK | GNVAGTFDM | En_HC | 470 pM | 6 of 6 |
| GFTLNDYGIS | VIYSDGRRTQYSDSVK | GRAAGKFDS | GPLM_HC | 190 nM | 1 of 6 |
| GFNLNEYGIS | VIYSDGRRTFYTDSVK | GRQAGTFDS | GPLM_HC | 1.5 nM | 6 of 6 |
| GFTLNSYGIS | VIESDGKRTFYGDSVK | GRHAQTFDS | Ctrl | not detected | 0 of 6 |
| GFDLQEYGIS | VIYADGKRTKVTDNVK | GEVTGTAFT | En_Gibbs | 73 nM | 1 of 6 |
| YFTLNSYGIS | VIYADGRRTFYGDSVK | GEAAGTFDS | GPLM_Gen | 19 nM | 5 of 6 |
| GADLNEYGIS | VIYADGNRNAYANKFK | GTNGTFLIN | En_Gibbs | not detected | 0 of 6 |
| GFSLNMYGIS | VIYSDGRRTFYHDSVK | GRTAGTFDS | GP_Gen | 32 nM | 1 of 6 |
| GFSLDEYGIS | VIYADGIRQHYSDKVK | GVVFGNVMF | En_Gibbs | not detected | 0 of 6 |
| GFDLNSYGIS | VIYSDGRRTFYTDSVK | GQAAGTFDL | GPLM_Gibbs | 11 nM | 6 of 6 |
| GFDLNSYGIS | VIYSDGRRTFYADDVK | GNAAGTFDN | GP_Gibbs | 3.7 nM | 6 of 6 |
| GFDLNEYGIS | VIYADGRRTAYADSVK | GQNAGTFDQ | En_Gen | 360 pM | 6 of 6 |
| GFDLDEYGIS | VIYADGRRTFYADSVK | GTEAGTFDL | En_HC | 660 pM | 6 of 6 |
| GFTLNMYGIS | VIYSDGRRTFYGDSVK | GRAAKTFDQ | Ctrl | not detected | 0 of 6 |
| GFDLSEYGIS | VIYADGRRTAYADSVK | GNVAGTFDV | En_Gen | 360 pM | 6 of 6 |
| GFDINEYGIS | VIFADGMRTAYDNSVK | GQMAGFFIN | En_Gibbs | 500 nM | 1 of 6 |
| GFNLDEYGIS | VIYADGVRTAYSDSVK | GNVAGTFDV | En_Gen | 280 pM | 6 of 6 |
| GFDLNEYGIS | VIYADGVRTAYTDSVK | GETAGTFDV | En_Gen | 400 pM | 6 of 6 |

Continued, with the values leading:

| Kd | seen in | CDR-H1 | CDR-H2 | CDR-H3 | group |
|---|---|---|---|---|---|
| 38 nM | 6 of 6 | GFDLEKYGIS | VIYADGYRSAYASNVK | GGTAGTFHF | En_Gibbs |
| 630 pM | 6 of 6 | GFDLNEYGIS | VIYADGRRTFYDDSVK | GEAAGTFDQ | En_HC |
| not detected | 0 of 6 | GFTLNEYGIS | VIYSDGRRTFYGDSVK | GRAAGTFDG | GP_HC |
| 2.5 nM | 6 of 6 | GFSLNSYGIS | VIYSDGRRTFYSDSVK | GKAAGTFDT | GPLM_Gibbs |
| not detected | 0 of 6 | GFTLNSYGIS | VIYADGRRTFYGDQVK | GEAAGTFKS | GP_HC |
| not detected | 0 of 6 | EFDLQEYGIS | VIYADGKRVAYKDNVK | GNGGGVFIA | En_Gibbs |
| not detected | 0 of 6 | GETLNKYGIS | VIYSDGRRTFYGDSVK | GSAAGTFDQ | Ctrl |
| 33 nM | 1 of 6 | GFSLNDYGIS | VIYSDGRRTFYGDSVK | GRQAGTFMS | GP_HC |
| 18 nM | 6 of 6 | GFWLNDYGIS | VIYSDGRRTFYGDSVK | GRAAGTFDI | GP_HC |
| 43 nM | 5 of 6 | GFDLDEYGIS | VIYADGARKAYQNQFK | GGQAGTFVN | En_Gibbs |
| not detected | 0 of 6 | GFTLESYGIS | VIYSDGRRTFYGDVVK | GREAGTFDS | Ctrl |
| 65 pM | 2 of 6 | GFSLNEYGIS | VIYSDGKRTFYGDDVK | GRQAGTFDS | GP_Gibbs |
| 41 nM | 4 of 6 | GFTLNSYGIS | VIYSDGHRTFYDDSVK | GRLAGTFDS | GPLM_HC |
| 2.4 nM | 6 of 6 | GFDLNEYGIS | VIYADGVRTAYIDSVK | GEAAGTFDL | En_HC |
| 620 pM | 6 of 6 | GFDLDEYGIS | VIYADGRRTAYADSVK | GEAAGTFDV | En_HC |
| 2.8 nM | 6 of 6 | GFDLNSYGIS | VIYSDGRRTFYADMVK | GNAAGTFDS | GP_Gen |
| not detected | 0 of 6 | KFDLEAYGIS | VIYADGVRRAYVDKVK | GQTGGMFDM | En_Gibbs |
| 4.6 nM | 6 of 6 | GFLIDEYGIS | VIYADGQRKMYQDNVK | GNVGSLGSV | En_Gibbs |
| 680 pM | 6 of 6 | GFDLEDYGIS | VIYADGKRTAYADSVK | GEVAGTFDQ | En_Gen |
| 460 pM | 6 of 6 | GFDLNEYGIS | VIYADGMRTYYADSVK | GNVAGTFDQ | En_Gen |
| 810 pM | 6 of 6 | GFSLNSYGIS | VIYSDGRRTFYGDSVK | GREAGTFDK | GPLM_Gen |
| 1.1 nM | 6 of 6 | GFTLNSYGIS | VIYSDGRRTFYGDSVK | GQLAGTFDD | GP_HC |
| not detected | 0 of 6 | GFTLNSYGIS | VIYADGRRTFYIDSVK | GTAMGTFDS | Ctrl |
| 490 pM | 6 of 6 | GFDLNEYGIS | VIYADGRRTFYSDSVK | GQIAGTFDV | En_HC |
| 3.0 nM | 6 of 6 | GFELNSYGIS | VIYSDGRRTFYGDSVK | GMQAGTFDS | GP_Gen |
| 120 pM | 6 of 6 | GFDLDEYGIS | VIYADGMRTAYVDSVK | GENAGTFDT | En_Gen |
| 77 nM | 5 of 6 | GFDLNEYGIS | VIYADGRRTFYADSVK | GENAGTFLV | En_HC |
| 95 nM | 1 of 6 | GFSIDEYGIS | VIYADGARASYADKVK | GQEVGDLIT | En_Gibbs |

Top 9 of the variants detected in all replicates, tightest first:

CDR-H1	CDR-H2	CDR-H3	group	Kd	seen in
GFDLNEYGIS	VIYADGVRKAYADSVK	GNVAGTFDI	En_Gen	82 pM	6 of 6
GFDLDEYGIS	VIYADGMRTAYVDSVK	GENAGTFDT	En_Gen	120 pM	6 of 6
GFNLDEYGIS	VIYADGVRTAYSDSVK	GNVAGTFDV	En_Gen	280 pM	6 of 6
GFDLSEYGIS	VIYADGRRTAYADSVK	GNVAGTFDV	En_Gen	360 pM	6 of 6
GFDLNEYGIS	VIYADGRRTAYADSVK	GQNAGTFDQ	En_Gen	360 pM	6 of 6
GFDLNEYGIS	VIYADGVRTAYTDSVK	GETAGTFDV	En_Gen	400 pM	6 of 6
GFDLNEYGIS	VIYADGMRTYYADSVK	GNVAGTFDQ	En_Gen	460 pM	6 of 6
GFNLNEYGIS	VIYADGRRTFYADSVK	GNVAGTFDM	En_HC	470 pM	6 of 6
GFDLNEYGIS	VIYADGRRTFYSDSVK	GQIAGTFDV	En_HC	490 pM	6 of 6

Values reported by Li et al. 2023, doi:10.1038/s41467-023-39022-2 (FLAb copy).